## Ab-14 heavy chain CDR variants: yeast mating affinities

From the AlphaSeq antibody data of Engelhart et al. 2022 (doi:10.1038/s41597-022-01779-4), copy in the FLAb collection.

Target: peptide PDVDLGDISGINAS, taken from heptad repeat 2 (HR2) of SARS-CoV-2 spike.

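The parent was found by panning a naive human phage display library on the peptide. Variants in AAYL49 differ from the parent at up to three CDR positions; double and triple changes were sampled at random. Affinity was read by AlphaSeq, a pooled yeast mating assay with surface-displayed partners. After mating in shaken culture at 30 °C for 16 h, diploids were selected and their barcode pairs sequenced. The ratio of observed to expected reads was calibrated, replicate by replicate, on BCL2-family standards whose Kd was known from biolayer interferometry. Mating was done three times.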

Parent: Ab-14, a human scFv built as VH, a 15-residue (Gly4Ser)3 linker, VL. Only the CDRs of the heavy chain vary.
VH: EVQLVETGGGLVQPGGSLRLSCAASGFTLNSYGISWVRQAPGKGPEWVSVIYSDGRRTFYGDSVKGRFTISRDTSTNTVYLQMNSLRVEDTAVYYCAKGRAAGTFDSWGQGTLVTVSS
VL: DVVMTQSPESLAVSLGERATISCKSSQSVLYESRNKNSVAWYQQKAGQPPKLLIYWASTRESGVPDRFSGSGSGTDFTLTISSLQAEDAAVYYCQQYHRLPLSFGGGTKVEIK

The parent's heavy chain CDRs are GFTLNSYGIS, VIYSDGRRTFYGDSVK, GRAAGTFDS; each variant's own CDRs replace them letter for letter.
All variants listed here change R57 of the VH, counted from its first residue.
Each Kd is an estimate from the mating assay, the geometric mean of the replicates in which the pair was seen; lower is stronger.
An entry "no signal" has no value in the source: the pair was not observed among the diploids in any replicate. This suggests poor binding but is not conclusive.

GFTLNSYGIS | VVYSDGATTFYGDSVK | GRAAGTFDS: no signal (0 of 3 replicates).
GFTLNSYYIS | VIYSDGRATFYGESVK | GRAAGTFDS: no signal (0 of 3 replicates).
GFTENSYGIS | VIYSDGRMTFYGDSVS | GRAAGTFDS: 1.2 µM (2 of 3 replicates).
GFTLNSYRIS | VIYSMGRHTFYGDSVK | GRAAGTFDS: 21 µM (1 of 3 replicates).
GFTENSYGIS | VIYSDGRLTFKGDSVK | GRAAGTFDS: no signal (0 of 3 replicates).
GFTLNSYGLS | VIYSDGRATFYGDSVK | GRPAGTFDS: 30 µM (3 of 3 replicates).
GFTLNSPGIS | VIGSDGRYTFYGDSVK | GRAAGTFDS: no signal (0 of 3 replicates).
GFTLNSYGIS | VIYSDGRTEFYGDSVK | CRAAGTFDS: 430 nM (1 of 3 replicates).
GFTLNSYKIS | VIYSDGRMTFYQDSVK | GRAAGTFDS: no signal (0 of 3 replicates).
GFTLNSYGIS | VDYSDERGTFYGDSVK | GRAAGTFDS: 11 µM (1 of 3 replicates).
GFTLNSYGIS | VIYSDGRFTYYGDSWK | GRAAGTFDS: 22 µM (2 of 3 replicates).
GFTLNSYWIS | VIYSDGRTTLYGDSVK | GRAAGTFDS: no signal (0 of 3 replicates).
GFTLNSYGPS | VIYSDGRETFYGDSVK | GRAAGTFDS: no signal (0 of 3 replicates).
GFTLNSYLIS | HIYSDGRKTFYGDSVK | GRAAGTFDS: 12 µM (3 of 3 replicates).
GFPLNSYGIS | VIYDDGRPTFYGDSVK | GRAAGTFDS: 580 nM (1 of 3 replicates).
GFTLNSYGIS | VIYSDGPGTTYGDSVK | GRAAGTFDS: no signal (0 of 3 replicates).
RMTLNSYGIS | VIYSDGRGTFYGDSVK | GRAAGTFDS: no signal (0 of 3 replicates).
GFTLNSFGIS | VWYSDGRVTFYGDSVK | GRAAGTFDS: no signal (0 of 3 replicates).
GFTLNSDGIS | VFYSDGRITFYGDSVK | GRAAGTFDS: 42 µM (2 of 3 replicates).
GFTLNSDGIS | VIYSDGRMTFYGDSVK | GKAAGTFDS: 47 µM (1 of 3 replicates).
GFTLNSYGMS | VIYSDGRGTFYGDSVK | GRAAGTFDS: no signal (0 of 3 replicates).
GFTLNSYGIS | VIYSDGRITFYGDSVK | GRAAGTFDH: no signal (0 of 3 replicates).
MFTLNSYGIS | VIYSDGRGTFYGDSHK | GRAAGTFDS: no signal (0 of 3 replicates).
GFTLNSYGIS | VIYSIGRWTFYGDSVK | GRIAGTFDS: 22 µM (1 of 3 replicates).
GFTLNSYGIS | GIYSDGRVTFYVDSVK | GRAAGTFDS: no signal (0 of 3 replicates).
GFWLNSYGIS | VIYSDGRQTFYGDWVK | GRAAGTFDS: no signal (0 of 3 replicates).
GFTLNSYGIS | VIYSDGHMTFYGWSVK | GRAAGTFDS: no signal (0 of 3 replicates).
GFTLNSYGIS | VIYSDRRDTFYGLSVK | GRAAGTFDS: no signal (0 of 3 replicates).
KFTFNSYGIS | VIYSDGRLTFYGDSVK | GRAAGTFDS: 44 µM (1 of 3 replicates).
GFTLNSYGIS | VIYSDGRWTFYGDSVK | GRAAGTFDI: no signal (0 of 3 replicates).
GFTLNSYGIS | VIYSDPRHTFYGDSVK | GRAAGTLDS: 48 µM (2 of 3 replicates).
GFTLNSYGIS | VIYNDGRATFYGDSVK | GRAACTFDS: 15 µM (3 of 3 replicates).
GFTLNSYAIS | VIYSDGRKTFYGDSVK | GRAVGTFDS: 21 µM (2 of 3 replicates).
GFTLNSYGIS | VIYSDGRKTFYGSSVK | GRAACTFDS: 610 nM (1 of 3 replicates).
GFTLNSRGIS | VIYSDGRHTFYGDSVK | GRAAVTFDS: no signal (0 of 3 replicates).
GCTLNSYGIS | VIYSDGRWTFYKDSVK | GRAAGTFDS: 11 µM (1 of 3 replicates).

For reference, 3 entries of the list once more:

CDR-H1	CDR-H2	CDR-H3	apparent Kd	detected
GFTLNSYGIS	VVYSDGATTFYGDSVK	GRAAGTFDS	no signal	0/3
GFTLNSYGIS	VIYSDGHMTFYGWSVK	GRAAGTFDS	no signal	0/3
GFTLNSYGIS	VIYSDGRITFYGDSVK	GRAAGTFDH	no signal	0/3

Parent in this assay: reference entry 4.4 nM, copy in this library 13 µM (one replicate of three).
Empty control strains, which show no peptide, gave a signal in 15% of pairings with library AAYL49; the median was 11 µM and 95% of these signals were weaker than 680 nM. No background was subtracted.